# Values joined by “and” are separate entries in the source; they are usually repeats but may differ in a detail not shown here. Equal values may be shown once.
# Chains of the proteins cited; added tags and fusions are not shown. Lines headed by an entry give the natural chain unless they say otherwise; changes in a name come on top.
# UniProt P08482: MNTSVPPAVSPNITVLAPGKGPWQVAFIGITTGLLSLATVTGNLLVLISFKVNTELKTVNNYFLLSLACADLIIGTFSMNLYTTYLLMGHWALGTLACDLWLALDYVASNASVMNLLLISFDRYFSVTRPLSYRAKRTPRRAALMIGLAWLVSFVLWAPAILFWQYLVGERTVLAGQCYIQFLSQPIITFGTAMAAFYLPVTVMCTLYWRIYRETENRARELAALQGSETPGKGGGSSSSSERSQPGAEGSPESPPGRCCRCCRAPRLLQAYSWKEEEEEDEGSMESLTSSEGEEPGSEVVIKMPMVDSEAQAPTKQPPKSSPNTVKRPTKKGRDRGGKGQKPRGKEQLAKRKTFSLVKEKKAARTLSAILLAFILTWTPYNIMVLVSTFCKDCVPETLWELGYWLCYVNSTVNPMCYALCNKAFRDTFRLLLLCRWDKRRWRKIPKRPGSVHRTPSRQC
# UniProt P11229: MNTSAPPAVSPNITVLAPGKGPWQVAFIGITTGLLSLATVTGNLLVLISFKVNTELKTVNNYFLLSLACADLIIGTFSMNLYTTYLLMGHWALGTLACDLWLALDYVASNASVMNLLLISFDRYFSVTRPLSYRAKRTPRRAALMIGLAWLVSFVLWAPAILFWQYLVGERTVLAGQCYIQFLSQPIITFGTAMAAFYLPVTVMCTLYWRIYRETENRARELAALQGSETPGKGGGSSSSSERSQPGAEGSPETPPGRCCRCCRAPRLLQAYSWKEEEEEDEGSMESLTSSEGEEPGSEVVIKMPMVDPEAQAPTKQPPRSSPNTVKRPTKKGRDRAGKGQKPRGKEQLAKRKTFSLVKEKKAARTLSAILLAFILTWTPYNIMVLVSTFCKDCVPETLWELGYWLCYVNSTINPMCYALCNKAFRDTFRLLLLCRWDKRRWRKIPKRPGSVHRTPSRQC
# UniProt P08172, whole entry, looked up: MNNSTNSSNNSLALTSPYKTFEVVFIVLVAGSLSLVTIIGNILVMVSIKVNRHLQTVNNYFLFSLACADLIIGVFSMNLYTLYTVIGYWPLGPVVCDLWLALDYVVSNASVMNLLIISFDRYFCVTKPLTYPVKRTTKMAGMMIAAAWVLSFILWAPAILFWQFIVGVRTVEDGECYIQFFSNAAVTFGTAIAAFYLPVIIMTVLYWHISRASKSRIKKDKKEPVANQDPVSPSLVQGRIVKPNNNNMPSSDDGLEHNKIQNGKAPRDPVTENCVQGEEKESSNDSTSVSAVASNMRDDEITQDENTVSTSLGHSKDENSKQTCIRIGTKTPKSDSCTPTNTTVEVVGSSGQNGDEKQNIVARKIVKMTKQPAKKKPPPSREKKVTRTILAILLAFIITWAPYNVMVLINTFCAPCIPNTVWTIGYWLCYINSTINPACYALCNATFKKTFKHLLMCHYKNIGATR
# UniProt P20309, whole entry, looked up: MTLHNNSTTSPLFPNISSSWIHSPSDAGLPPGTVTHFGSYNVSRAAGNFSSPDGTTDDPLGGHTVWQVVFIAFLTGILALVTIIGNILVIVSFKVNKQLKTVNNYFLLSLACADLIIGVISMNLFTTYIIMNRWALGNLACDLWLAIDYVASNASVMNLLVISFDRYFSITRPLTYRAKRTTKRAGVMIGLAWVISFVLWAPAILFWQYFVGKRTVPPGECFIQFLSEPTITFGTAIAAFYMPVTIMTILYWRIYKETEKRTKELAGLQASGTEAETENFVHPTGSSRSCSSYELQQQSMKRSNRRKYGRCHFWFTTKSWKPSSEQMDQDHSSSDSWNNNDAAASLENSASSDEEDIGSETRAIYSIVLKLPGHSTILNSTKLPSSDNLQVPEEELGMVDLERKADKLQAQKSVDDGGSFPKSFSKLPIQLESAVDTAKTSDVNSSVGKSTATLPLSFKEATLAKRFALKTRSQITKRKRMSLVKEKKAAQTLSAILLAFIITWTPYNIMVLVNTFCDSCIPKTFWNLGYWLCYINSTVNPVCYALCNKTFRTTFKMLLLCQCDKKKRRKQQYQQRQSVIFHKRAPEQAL
# UniProt P08173, whole entry, looked up: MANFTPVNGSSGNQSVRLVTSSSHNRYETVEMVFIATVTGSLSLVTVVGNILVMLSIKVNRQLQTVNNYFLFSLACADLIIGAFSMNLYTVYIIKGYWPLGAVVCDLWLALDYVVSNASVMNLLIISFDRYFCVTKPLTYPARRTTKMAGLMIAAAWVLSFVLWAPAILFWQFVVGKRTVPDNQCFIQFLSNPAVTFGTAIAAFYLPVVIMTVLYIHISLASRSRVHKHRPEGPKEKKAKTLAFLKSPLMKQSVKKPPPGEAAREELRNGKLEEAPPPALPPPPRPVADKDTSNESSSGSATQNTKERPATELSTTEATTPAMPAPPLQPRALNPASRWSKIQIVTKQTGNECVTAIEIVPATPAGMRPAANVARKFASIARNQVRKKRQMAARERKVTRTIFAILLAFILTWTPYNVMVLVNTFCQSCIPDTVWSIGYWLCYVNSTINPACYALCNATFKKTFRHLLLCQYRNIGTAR
# Legend:
# [1] = biological target: muscarinic receptors (mainly M1) of rat brain cortex membranes (Rattus norvegicus, UniProt P08482); assay: Receptor binding, [3H]QNB, rat cortical membrane preparation; settings: Table 8; for Ki: read-out: Ki (nM), Average ± SD, [3H]QNB, rat cortical membranes
# [2] = biological target: cloned human muscarinic receptor subtype M1 (Homo sapiens, UniProt P11229); assay: Receptor binding, [3H]NMS, cloned human muscarinic receptor M1; settings: for receptor binding affinity pKi, M1: mean ± SD of 3 experiments; for Hill slope, M1: numbers in parentheses
# [3] = biological target: cloned human muscarinic receptor subtype M2 (Homo sapiens, UniProt P08172); assay: Receptor binding, [3H]NMS, cloned human muscarinic receptor M2; settings: for receptor binding affinity pKi, M2: mean ± SD of 3 experiments; for Hill slope, M2: numbers in parentheses
# [4] = biological target: cloned human muscarinic receptor subtype M3 (Homo sapiens, UniProt P20309); assay: Receptor binding, [3H]NMS, cloned human muscarinic receptor M3; settings: for receptor binding affinity pKi, M3: mean ± SD of 3 experiments; for Hill slope, M3: numbers in parentheses
# [5] = biological target: cloned human muscarinic receptor subtype M4 (Homo sapiens, UniProt P08173); assay: Receptor binding, [3H]NMS, cloned human muscarinic receptor M4; settings: for receptor binding affinity pKi, M4: mean ± SD of 3 experiments; for Hill slope, M4: numbers in parentheses
# [6] = tested on: cloned human muscarinic receptor subtypes M1-M4; assay: Receptor binding at cloned human muscarinic receptors, values stated across subtypes (ranges, M3/M2 selectivity)
# rabbit eyes (pupil size) [7] = assay: In vivo mydriatic studies of zwitterionic isomers in rabbit eyes; parameters: AUC^eff0-168 h: unit not given beside the values; settings: for Rmax (%): 0.1 mL topical, maximum % change in pupil size
# [8] = tested on: guinea pig ileum (M3 muscarinic receptors); assay: Guinea pig ileum contraction assay, pA2 against carbachol; settings: carbachol as agonist, 4-6 strips, mean ± SD
# [9] = In vitro stability in rat blood; settings: 37° C., pH 7.4
# [10] = In vitro stability in rat plasma; settings: 37° C., pH 7.4
# rabbit eyes (pupil size) [11] = assay: Mydriatic effect of soft glycopyrrolates in rabbit eyes; parameters: AUC^eff(0-144 h): unit not given beside the values; settings: for Rmax (%): 100 μl topical, % change in pupil size at 1 h
Compound,"receptor binding affinity pKi, M1 [2]","Hill slope, M1 [2]","receptor binding affinity pKi, M2 [3]","Hill slope, M2 [3]","receptor binding affinity pKi, M3 [4]","Hill slope, M3 [4]","receptor binding affinity pKi, M4 [5]","Hill slope, M4 [5]",Selectivity M3/M2 (affinity ratio) [6] [times],AUC^eff0-168 h (rabbit eyes (pupil size) [7]; conc. 0.1%),Rmax (%) (rabbit eyes (pupil size) [7]; conc. 0.1%),other results
CCCCCCOC(=O)C[N@+]1(C)CC[C@H](OC(=O)[C@](O)(c2ccccc2)C2CCCC2)C1,–,–,–,–,–,–,–,–,–,–,–,Hill slope [1]: −1.22 ± 0.08; Ki [1]: 67 nM
C[N@+]1(CC(=O)[O-])CC[C@@H](OC(=O)[C@](O)(c2ccccc2)C2CCCC2)C1,8.13 ± 0.06,(1.25 ± 0.01),7.63 ± 0.02,(0.82 ± 0.15),8.15 ± 0.02,(0.84 ± 0.17),8.33 ± 0.04,(1.00 ± 0.06),3.3 ± 0.0,308 ± 106,51.79 ± 16.62,duration of mydriatic activity (rabbit eyes (pupil size) [7]; 0.1% concentrations (FIG. 5)): 10 h
CCCCCCCCOC(=O)C[N+]1(C)CCC(OC(=O)C(O)(c2ccccc2)C2CCCC2)C1 (stereo not shown),–,–,–,–,–,–,–,–,–,–,–,Hill slope [1]: −1.26 ± 0.06; Ki [1]: 68 nM
CCCCCCOC(=O)C[N+]1(C)CCC(OC(=O)C(O)(c2ccccc2)C2CCCC2)C1 (stereo not shown),–,–,–,–,–,–,–,–,–,–,–,Hill slope [1]: −1.15 ± 0.05; Ki [1]: 58 nM
C[N@@+]1(CC(=O)[O-])CC[C@@H](OC(=O)[C@](O)(c2ccccc2)C2CCCC2)C1,7.04 ± 0.09,(0.97 ± 0.13),6.43 ± 0.07,(0.85 ± 0.21),6.95 ± 0.04,(1.06 ± 0.04),7.00 ± 0.05,(0.93 ± 0.01),3.5 ± 0.2,89 ± 50,24.40 ± 8.33,–
"(2S,1′S,3′R) 3-(2-cyclopentyl-2-phenyl-2-hydroxyacetoxy)-1-(carboxymethyl)-1-methylpyrrolidinium inner salt",6.67 ± 0.06,(1.08 ± 0.03),6.35 ± 0.01,(1.01 ± 0.01),6.22 ± 0.05,(1.04 ± 0.08),6.47 ± 0.01,(1.30 ± 0.28),0.7 ± 0.0,13 ± 15,3.87 ± 4.49,pA2 [8]: 5.69 ± 0.13; AUC^eff0-168 h (rabbit eyes (pupil size) [7]; conc. 0.4%): 37 ± 3; Rmax (%) (rabbit eyes (pupil size) [7]; conc. 0.4%): 14.88 ± 1.19%
COC(=O)C[N+]1(C)CCC(OC(=O)[C@](O)(c2ccccc2)C2CCCC2)C1.[Br-] (stereo partly shown),8.89 ± 0.04,(0.83 ± 0.11),8.87 ± 0.05,(1.10 ± 0.11),9.00 ± 0.06,(0.83 ± 0.01),9.52 ± 0.01,(0.83 ± 0.01),1.4 ± 0.2,–,–,"pKi, range over subtypes M1-M4 [6]: 8.9-9.5; half-life t1/2, min [9]: 57 min and 56.7 ± 6.1 min; pseudo-first-order rate constant k × 10^−3, min^−1 [9]: 12.4 ± 1.4 × 10^−3 min^−1; half-life t1/2, min [10]: 20 min; pseudo-first-order rate constant k × 10^−3, min^−1 [10]: 34.5 ± 3.2 × 10^−3 min^−1; AUC^eff(0-144 h) (rabbit eyes (pupil size) [11]; conc. 0.5%): 752 ± 342; Rmax (%) (rabbit eyes (pupil size) [11]; conc. 0.5%): 52.92 ± 13.41%; AUC^eff(0-144 h) (rabbit eyes (pupil size) [11]; conc. 1%): 875 ± 197; Rmax (%) (rabbit eyes (pupil size) [11]; conc. 1%): 57.08 ± 11.66%; duration of mydriatic activity (rabbit eyes (pupil size) [11]; pharmacodynamically equipotent doses): 24 h"
C[N@@+]1(CC(=O)[O-])CC[C@H](OC(=O)[C@@](O)(c2ccccc2)C2CCCC2)C1,<4.5,–,<4.5,–,<4.5,–,<4.5,–,–,0 ± 0,0.00 ± 0.00,AUC^eff0-168 h (rabbit eyes (pupil size) [7]; conc. 0.4%): 0 ± 0; Rmax (%) (rabbit eyes (pupil size) [7]; conc. 0.4%): 0.00 ± 0.00%
CCCCCCCCOC(=O)C[N@@+]1(C)CC[C@H](OC(=O)[C@](O)(c2ccccc2)C2CCCC2)C1,–,–,–,–,–,–,–,–,–,–,–,Hill slope [1]: −1.22 ± 0.11; Ki [1]: 60 nM
COC(=O)C[N+]1(C)CCC(OC(=O)C(O)(c2ccccc2)C2CCCC2)C1.[Br-] (racemic),7.91 ± 0.05,(1.02 ± 0.12),7.79 ± 0.11,–,7.80 ± 0.10,(1.17 ± 0.18),8.29 ± 0.19,(1.12 ± 0.05),1.0 ± 0.0,–,–,"half-life t1/2, min [9]: 57 min; pseudo-first-order rate constant k × 10^−3, min^−1 [9]: 12.3 ± 1.3 × 10^−3 min^−1; half-life t1/2, min [10]: 19.5 min; pseudo-first-order rate constant k × 10^−3, min^−1 [10]: 36.4 ± 5.0 × 10^−3 min^−1; AUC^eff(0-144 h) (rabbit eyes (pupil size) [11]; conc. 0.5%): 185 ± 35; Rmax (%) (rabbit eyes (pupil size) [11]; conc. 0.5%): 45.83 ± 4.81%; AUC^eff(0-144 h) (rabbit eyes (pupil size) [11]; conc. 1%): 467 ± 114; Rmax (%) (rabbit eyes (pupil size) [11]; conc. 1%): 59.58 ± 15.72%"
C[N@@+]1(CC(=O)[O-])CC[C@@H](OC(=O)[C@@](O)(c2ccccc2)C2CCCC2)C1,5.87 ± 0.04,(1.06 ± 0.05),5.65 ± 0.06,(1.24 ± 0.07),5.54 ± 0.16,(1.02 ± 0.12),5.79 ± 0.12,(0.88 ± 0.04),0.8 ± 0.1,0 ± 0,0.00 ± 0.00,AUC^eff0-168 h (rabbit eyes (pupil size) [7]; conc. 0.4%): 11 ± 1; Rmax (%) (rabbit eyes (pupil size) [7]; conc. 0.4%): 7.44 ± 0.60%
C[N@+]1(CC(=O)[O-])CC[C@H](OC(=O)[C@@](O)(c2ccccc2)C2CCCC2)C1,5.84 ± 0.06,(1.13 ± 0.10),5.61 ± 0.00,(1.20 ± 0.02),5.61 ± 0.09,(1.03 ± 0.01),5.85 ± 0.05,(0.95 ± 0.18),1.0 ± 0.2,13 ± 15,3.87 ± 4.49,AUC^eff0-168 h (rabbit eyes (pupil size) [7]; conc. 0.4%): 28 ± 2; Rmax (%) (rabbit eyes (pupil size) [7]; conc. 0.4%): 11.01 ± 3.81%
C[N+]1(CC(=O)[O-])CCC(OC(=O)C(O)(c2ccccc2)C2CCCC2)C1 (stereo not shown),6.19 ± 0.06,(1.11 ± 0.06),5.48 ± 0.13,(1.02 ± 0.20),5.84 ± 0.07,(1.01 ± 0.07),6.44 ± 0.06,(0.84 ± 0.06),2.4 ± 0.7,–,–,"pKi, range over subtypes M1-M4 [6]: 5.5-6.4; AUC^eff0-168 h (rabbit eyes (pupil size) [7]; conc. 0.01%): 0.7 ± 0.9; Rmax (%) (rabbit eyes (pupil size) [7]; conc. 0.01%): 1.85 ± 2.14%; AUC^eff0-168 h (rabbit eyes (pupil size) [7]; conc. 1%): 119 ± 34; Rmax (%) (rabbit eyes (pupil size) [7]; conc. 1%): 45.37 ± 8.19%"
C[N@+]1(CC(=O)[O-])CC[C@H](OC(=O)[C@](O)(c2ccccc2)C2CCCC2)C1,8.32 ± 0.04,(1.01 ± 0.01),7.64 ± 0.01,(1.00 ± 0.04),8.46 ± 0.12,(0.80 ± 0.21),8.56 ± 0.07,(0.86 ± 0.06),5.5 ± 1.1,274 ± 134,47.32 ± 19.64,–
